Laboratory results published in BindingDB's records for doi:10.1021/acsmedchemlett.1c00450 (The Genomics Institute of The Novartis Research Foundation, 2021).

Test: Inhibition of KIF5B-RET fusion protein (unknown origin) expressed in mouse BaF3 cells assessed as reduction in cell proliferation incubated for 48 hrs by cell proliferation assay

COC(=O)NC12CCC(n3cc(-c4ccc(Cl)c(N)c4)c4c(N)ncnc43)(CC1)CC2
IC50: 20 nM
